Results published in ChEMBL document CHEMBL1131307, “Novel nonnucleoside inhibitors of HIV-1 reverse transcriptase. 8. 8-Aryloxymethyl- and 8-arylthiomethyldipyridodiazepinones” (J Med Chem, 1998).

Target: Human immunodeficiency virus type 1 reverse transcriptase (Human immunodeficiency virus 1, UniProt Q72547)
Assay: Inhibitory activity against HIV-1 wild-type reverse transcriptase.

Compound	IC50
CCN1c2ncc(COc3ccccc3F)cc2C(=O)N(C)c2ccc(Cl)nc21	170 nM
CCN1c2ncc(COc3cccc(O)c3)cc2C(=O)N(C)c2ccc(Cl)nc21	130 nM
